The record followed here is ChEMBL document CHEMBL5226285, “The long and winding road of designing phosphodiesterase inhibitors for the treatment of heart failure” (Eur J Med Chem, 2021).

By UniProt entry, the sequences of proteins in these tests, tags left out. Where a name states a change or a piece, a line headed by the entry shows the natural chain unless it says otherwise.
UniProt O76083: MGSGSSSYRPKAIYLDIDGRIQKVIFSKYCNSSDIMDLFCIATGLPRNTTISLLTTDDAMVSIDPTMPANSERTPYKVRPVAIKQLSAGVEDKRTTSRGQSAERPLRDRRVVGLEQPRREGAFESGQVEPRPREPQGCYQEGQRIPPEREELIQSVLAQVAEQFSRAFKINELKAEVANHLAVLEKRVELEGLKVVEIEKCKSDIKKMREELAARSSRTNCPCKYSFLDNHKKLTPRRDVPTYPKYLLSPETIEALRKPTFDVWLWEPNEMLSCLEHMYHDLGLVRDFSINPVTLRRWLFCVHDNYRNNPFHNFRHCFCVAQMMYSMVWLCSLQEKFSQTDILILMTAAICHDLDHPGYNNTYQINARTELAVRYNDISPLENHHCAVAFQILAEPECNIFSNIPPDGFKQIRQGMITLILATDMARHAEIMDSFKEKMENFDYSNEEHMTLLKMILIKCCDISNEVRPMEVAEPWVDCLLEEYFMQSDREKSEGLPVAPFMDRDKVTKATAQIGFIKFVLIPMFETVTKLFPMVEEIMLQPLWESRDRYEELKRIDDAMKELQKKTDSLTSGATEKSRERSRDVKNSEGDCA

The assay concerns the target High affinity cGMP-specific 3',5'-cyclic phosphodiesterase 9A (Homo sapiens, UniProt O76083).

A word on the IC50: it is the concentration needed to halve the response being measured. A lower IC50 goes with higher potency. In the case of `C[C@H](Nc1nc2c(cnn2C2CCCC2)c(=O)[nH]1)c1ccc(Cl)cc1`, the IC50 was 0.011 µM.
Turning to `C[C@@H](Nc1nc2c(cnn2C2CCCC2)c(=O)[nH]1)c1ccc(Cl)cc1`, the IC50 amounted to 0.056 µM.
